Source: ChEMBL document CHEMBL1129836, “Replacements for lysine in l-seryl-l-lysyl dipeptide amide inhibitors of candida albicans myristoyl-CoA:protein N-myristoyltransferase” (Bioorg Med Chem Lett, 1997)

The chains behind the UniProt entries cited, without tags or fusion partners.
UniProt P30419, whole entry, looked up, tested part not stated: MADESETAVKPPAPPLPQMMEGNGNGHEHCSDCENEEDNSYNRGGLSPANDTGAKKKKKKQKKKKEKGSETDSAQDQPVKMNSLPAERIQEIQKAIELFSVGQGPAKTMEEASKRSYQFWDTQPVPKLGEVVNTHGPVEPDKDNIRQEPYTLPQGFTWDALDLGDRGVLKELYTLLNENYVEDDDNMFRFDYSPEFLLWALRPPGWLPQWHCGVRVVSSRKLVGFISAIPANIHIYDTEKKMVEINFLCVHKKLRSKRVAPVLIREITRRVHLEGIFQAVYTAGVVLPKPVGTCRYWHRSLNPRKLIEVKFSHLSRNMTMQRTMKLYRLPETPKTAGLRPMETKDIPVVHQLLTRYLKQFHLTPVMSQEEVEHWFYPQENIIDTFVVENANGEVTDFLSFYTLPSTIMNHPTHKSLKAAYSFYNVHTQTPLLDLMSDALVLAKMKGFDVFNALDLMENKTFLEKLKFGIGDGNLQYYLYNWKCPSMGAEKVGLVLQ
UniProt O60551, whole entry, looked up, tested part not stated: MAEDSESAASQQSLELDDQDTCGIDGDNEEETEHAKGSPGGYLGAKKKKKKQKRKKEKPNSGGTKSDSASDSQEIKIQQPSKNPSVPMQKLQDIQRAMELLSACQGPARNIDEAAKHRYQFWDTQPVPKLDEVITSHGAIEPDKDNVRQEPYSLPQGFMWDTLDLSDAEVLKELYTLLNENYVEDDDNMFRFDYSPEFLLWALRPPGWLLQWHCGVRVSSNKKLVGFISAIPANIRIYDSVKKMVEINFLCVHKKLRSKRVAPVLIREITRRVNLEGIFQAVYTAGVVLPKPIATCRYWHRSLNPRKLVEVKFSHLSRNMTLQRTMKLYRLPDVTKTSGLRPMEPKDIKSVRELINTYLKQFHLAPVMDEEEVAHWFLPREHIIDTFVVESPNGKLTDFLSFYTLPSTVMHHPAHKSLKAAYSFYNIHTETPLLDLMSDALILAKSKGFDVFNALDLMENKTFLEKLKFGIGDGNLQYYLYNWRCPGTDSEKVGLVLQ

Test system: CC(C)C[C@H](NC(=O)CN)C(=O)N[C@@H](Cc1ccc(O)cc1)C(=O)N[C@@H](C)C(=O)N[C@@H](CO)C(=O)N[C@@H](CCCCN)C(=O)N[C@@H](CC(C)C)C(=O)N[C@@H](CO)C(N)=O
Settings: Candida albicans

With “Peptide N-myristoyltransferase (Homo sapiens) (from UniProt P30419+O60551)” the Km was 0.6 µM.
